Reference: patent publication US11236047B2 (ASTEX THERAPEUTICS LIMITED, priority 2017, dated 2022)
Read-outs that look alike come from different tables or passages of the source.

Assays:
SJSA-1 cells = assay: Protocol B: SJSA-1 CellTiter-Glo luminescent cell viability assay
[1] = system: SJSA-1 cells (p53 wild-type, MDM2 amplified osteosarcoma); assay: Protocol A: SJSA-1 growth inhibition (sulphorhodamine B); conditions: Homo sapiens
[2] = read-out: SJSA1 IC50, Protocol B, SJSA-1

CCC(O)(CN1CCN(C)CC1)c1cc(F)c2c(c1)C(=O)N(Cc1ncc(Cl)cn1)[C@@]2(O[C@H]1CCOC1)c1ccc(Cl)cc1 (single isomer, unassigned) [Example 523] was tested, and the IC50 (SJSA-1 cells; [2]) was 1.5 µM.

Work on CC(C)(O)c1cc(F)c2c(c1)C(=O)N(Cc1ccc(Cl)cc1)[C@@]2(OCC1(CO)CC1)c1ccc(Cl)cc1 [Example 2] yielded an IC50 (SJSA-1 cells; Homo sapiens, SJSA-1, 72 h, read-out: SJSA1 IC50 (μM) (Protocol B), Protocol B, CellTiter-Glo, 72 hrs) of 0.46 µM and an IC50 ([1]; SJSA-1, 72 h, read-out: SJSA-1 IC50 (μM) (Protocol A), Protocol A, SRB, 72 hrs) of 0.33 µM.

CCC(O)(c1cc(F)c2c(c1)C(=O)N(Cc1ccc(C#N)cn1)[C@@]2(O[C@H]1CCOC1)c1ccc(Cl)cc1)C1(F)CCOCC1 (stereo partly drawn) showed an IC50 ([1]; SJSA-1, read-out: SJSA-1 IC50 (μM)) of 0.018 µM.

[2H]C([2H])(O)C1(C([2H])([2H])O[C@]2(c3ccc(C#N)cc3)c3ccc(C(C)(C)O)cc3C(=O)N2Cc2ccc(Cl)cn2)CC1 [Example 48] gave an IC50 (SJSA-1 cells; Homo sapiens, SJSA-1, read-out: SJSA1 IC50 (μM) (Protocol B), SJSA-1, Protocol B) of 0.56 µM.

CCC(O)(c1cc(F)c2c(c1)C(=O)N(Cc1ccc(C#N)cn1)[C@@]2(O[C@H]1CCOC1)c1ccc(Cl)cc1)C1(F)CCOCC1 (stereo partly drawn) [445] was tested, and the IC50 (SJSA-1 cells; [2]) was 3.3 µM.
